The text below walks through data of PubChem BioAssay (EPA / NIEHS).

Chains of the proteins cited; added tags and fusions are not shown.
UniProt Q00613, whole entry: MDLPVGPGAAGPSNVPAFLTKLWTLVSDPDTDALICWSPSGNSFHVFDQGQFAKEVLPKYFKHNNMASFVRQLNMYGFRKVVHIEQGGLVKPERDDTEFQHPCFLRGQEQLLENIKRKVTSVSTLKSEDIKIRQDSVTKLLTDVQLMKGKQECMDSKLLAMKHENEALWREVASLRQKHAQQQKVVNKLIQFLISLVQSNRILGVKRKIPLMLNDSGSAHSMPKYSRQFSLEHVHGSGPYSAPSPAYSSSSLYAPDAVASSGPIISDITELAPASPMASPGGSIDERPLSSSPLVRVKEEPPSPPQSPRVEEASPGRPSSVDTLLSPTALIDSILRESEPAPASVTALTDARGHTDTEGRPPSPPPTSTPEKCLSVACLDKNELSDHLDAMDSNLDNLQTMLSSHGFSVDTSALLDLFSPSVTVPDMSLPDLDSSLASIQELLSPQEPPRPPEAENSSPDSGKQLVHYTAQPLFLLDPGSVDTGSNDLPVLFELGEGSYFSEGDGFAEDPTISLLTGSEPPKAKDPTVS
UniProt P26367, whole entry: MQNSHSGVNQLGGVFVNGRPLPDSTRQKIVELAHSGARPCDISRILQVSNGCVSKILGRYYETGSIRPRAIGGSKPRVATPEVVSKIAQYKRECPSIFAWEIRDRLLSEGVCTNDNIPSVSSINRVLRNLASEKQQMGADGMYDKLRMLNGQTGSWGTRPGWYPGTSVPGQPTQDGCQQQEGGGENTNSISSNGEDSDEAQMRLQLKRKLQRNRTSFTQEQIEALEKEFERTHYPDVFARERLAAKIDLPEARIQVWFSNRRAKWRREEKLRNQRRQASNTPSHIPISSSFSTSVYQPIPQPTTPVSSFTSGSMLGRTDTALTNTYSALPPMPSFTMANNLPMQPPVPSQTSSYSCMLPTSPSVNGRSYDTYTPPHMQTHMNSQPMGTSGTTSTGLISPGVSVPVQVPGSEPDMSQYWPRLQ
UniProt P08047, whole entry: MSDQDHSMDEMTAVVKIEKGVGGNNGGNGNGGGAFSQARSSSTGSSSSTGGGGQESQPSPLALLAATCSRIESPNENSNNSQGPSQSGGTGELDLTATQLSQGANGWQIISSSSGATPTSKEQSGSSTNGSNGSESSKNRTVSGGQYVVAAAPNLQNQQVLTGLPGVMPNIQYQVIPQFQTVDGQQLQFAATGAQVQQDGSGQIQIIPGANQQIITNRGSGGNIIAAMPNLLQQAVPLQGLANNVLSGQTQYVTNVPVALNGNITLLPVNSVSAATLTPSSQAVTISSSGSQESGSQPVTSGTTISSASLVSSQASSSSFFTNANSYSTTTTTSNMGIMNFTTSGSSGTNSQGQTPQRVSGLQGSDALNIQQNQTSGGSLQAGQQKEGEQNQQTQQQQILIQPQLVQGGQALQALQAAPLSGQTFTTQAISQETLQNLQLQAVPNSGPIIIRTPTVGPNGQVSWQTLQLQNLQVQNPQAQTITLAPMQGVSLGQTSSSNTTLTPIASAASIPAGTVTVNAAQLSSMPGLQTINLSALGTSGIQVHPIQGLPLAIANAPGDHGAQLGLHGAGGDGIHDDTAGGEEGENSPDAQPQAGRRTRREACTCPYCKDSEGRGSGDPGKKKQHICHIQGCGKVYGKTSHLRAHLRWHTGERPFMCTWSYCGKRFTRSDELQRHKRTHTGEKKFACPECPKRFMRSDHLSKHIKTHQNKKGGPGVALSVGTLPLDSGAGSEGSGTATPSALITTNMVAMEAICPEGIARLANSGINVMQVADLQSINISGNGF

Only a part is listed here, and it is no random draw. Calls of active or inactive are those of the source. How the source made its calls: active means hit-call score of the fitted dose curve at least 0.9, where 1 is the maximum; inactive means score below 0.9.

Test [1] has as its target Heat shock factor protein 1 (Homo sapiens) (UniProt Q00613). Briefly: ATG_HSE_CIS: Attagene CIS-FACTORIAL HepG2 Assay for human Heat Shock Transcription Factor 1 (HSE) (AID 2282953). The conditions noted are these: HepG2 HSE cis-reporter, Attagene RNA transcription; actives raise or lower the signal. Put shortly: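 HepG2, transient MRTU transfection, cis-promoter reporters (endogenous TF activity). 24 h compound. RNA → oligo(dT) RT → PCR → 6-FAM primer extension → HpaI cut → CE. Bidirectional fit vs DMSO.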

A short description of test [2]: ATG_MRE_CIS: Attagene CIS-FACTORIAL HepG2 Assay for human Metal Responsive Element (MRE) (AID 2282954). The conditions noted are these: HepG2 MRE cis-reporter transcription, Attagene multiplex; actives raise or lower the signal. A digest of the protocol: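 Transient MRTU transfection of HepG2 (FuGene 6); 24 h dosing; total RNA → oligo(dT) RT, PCR, 6-FAM primer extension, HpaI cut, CE. Bidirectional fit vs DMSO.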

A short description of test [3]: ATG_PBREM_CIS: Attagene CIS-FACTORIAL HepG2 Assay for human Phenobarbital-responsive Enhancer Module (PBREM) (AID 2282955). The conditions noted are these: HepG2 PBREM cis-reporter, Attagene multiplexed transcription; actives raise or lower the signal. Put shortly:
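After a 24 h incubation with test chemical, transfected HepG2 cells yield total RNA; reporter-specific RT-PCR products are fluorescently labelled, HpaI-digested and resolved by capillary electrophoresis against ROX size standards.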

Test [4] concerns the target Paired box protein Pax-6 (Homo sapiens) (UniProt P26367). The test can be described thus: ATG_Pax6_CIS: Attagene CIS-FACTORIAL HepG2 Assay for human Paired Box 6 (PAX6) (AID 2282956). The conditions noted are these: HepG2 CIS-FACTORIAL PAX6 reporter transcription, RNA readout; actives raise or lower the signal. Put shortly:
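HepG2 cells transiently transfected with cis-promoter-driven multiplexed reporter units sensing endogenous transcription factor activity; 24 h chemical exposure. Reporter mRNA quantified by RT-PCR, 6-FAM labelling, HpaI digestion and capillary electrophoresis; bidirectional fit versus DMSO baseline.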

Test [5] in a line: ATG_PXRE_CIS: Attagene CIS-FACTORIAL HepG2 Assay for human Pregnane X Receptor Element (PXRE) (AID 2282957). The conditions noted are these: HepG2 Attagene CIS-FACTORIAL PXRE reporter, mRNA; actives raise or lower the signal. Put shortly: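 Transfect HepG2 with MRTUs (cis promoter elements); dose chemical, incubate 24 h; isolate RNA, RT with oligo(dT), PCR, 6-FAM label, HpaI cut, CE. Gain/loss fit vs DMSO.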

Test [6] in a line: ATG_PPRE_CIS: Attagene CIS-FACTORIAL HepG2 Assay for human Peroxisome Proliferator-activated Response Element (PPRE) (AID 2282958). The conditions noted are these: HepG2 PPRE cis-element reporter, Attagene transcription factor profiling; actives raise or lower the signal. A digest of the protocol:
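Multiplexed reporter transcription units under cis-regulatory promoters were transfected into HepG2 cells to capture endogenous factor activity. A 24 h incubation preceded RNA isolation and fluorescent RT-PCR fragment analysis.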

The nature of test [7]: ATG_RORE_CIS: Attagene CIS-FACTORIAL HepG2 Assay for human RAR-related Orphan Receptor Element (RORE) (AID 2282959). The conditions noted are these: HepG2 Attagene cis-factorial RORE reporter, mRNA; actives raise or lower the signal. Put shortly:
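Fluorescence intensity of reporter-specific cDNA fragments, separated by capillary electrophoresis, gives the signal. Source: HepG2 liver cells transiently transfected with cis-element reporters and exposed 24 h; DMSO-normalized bidirectional fit.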

A short description of test [8]: ATG_Sox_CIS: Attagene CIS-FACTORIAL HepG2 Assay for human SRY-box transcription factor (SOX) (AID 2282960). The conditions noted are these: HepG2 Attagene cis-factorial SOX reporter, mRNA; actives raise or lower the signal. A digest of the protocol: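 After 24 h of chemical treatment, transfected HepG2 reporter cells are lysed for total RNA. Transcript levels come from RT-PCR with labelled primer extension and capillary electrophoresis, analysed bidirectionally versus DMSO.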

The target in test [9] is Transcription factor Sp1 (Homo sapiens) (UniProt P08047). Briefly: ATG_Sp1_CIS: Attagene CIS-FACTORIAL HepG2 Assay for human Specificity Protein 1 (Sp1) (AID 2282961). The conditions noted are these: HepG2 Sp1 cis-reporter transcription, actives raise or lower the signal. A digest of the protocol:
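Sp1-driven reporter mRNA, read as capillary electrophoresis fluorescence after RT-PCR, in transiently transfected HepG2 cells dosed for 24 h; signal change in either direction relative to DMSO.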

Test [10] can be described thus: ATG_SREBP_CIS: Attagene CIS-FACTORIAL HepG2 Assay for human Sterol Regulatory Element Binding (SREBP) (AID 2282962). The conditions noted are these: HepG2 Attagene cis-factorial SREBP reporter, mRNA; actives raise or lower the signal. Put shortly: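 HepG2 cells transiently transfected with multiplexed cis-promoter reporter units sensing endogenous transcription factors; reporter mRNA measured 24 h after dosing by RT-PCR, 6-FAM labeling, HpaI digestion and capillary electrophoresis. Bidirectional fit versus DMSO.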

Turning to `CC(C)OP(C)(=O)OC(C)C`, the call in test [1], in test [2], in [3], in [4], in test [5] and in [6] was inactive. Also, the result in [7], in test [8], in test [9] and in test [10] was inactive.

As for `O=[N+]([O-])OCC(CO[N+](=O)[O-])(CO[N+](=O)[O-])CO[N+](=O)[O-]`, the compound was called inactive in [1], in test [2], in test [3], in test [4], in [5] and in test [6]. Further, the result in test [7], in test [8], in [9] and in [10] was inactive.

Regarding `O=[N+]([O-])c1cccc([N+](=O)[O-])c1`, the compound was classed as inactive in test [1], in [2], in [3], in [4], in [5] and in [6]. The outcome in [7], in [8], in test [9] and in test [10] was inactive.

With `Cc1cccc([N+](=O)[O-])c1[N+](=O)[O-]`, the values for the AC50 in [1], in [4] and in [6] were active: 107 µM, active: 111 µM and active: 3.16 µM, respectively. In addition, the result in test [3], in [5], in test [7], in test [8], in [9] and in test [10] was inactive.

As to `Cc1ccc([N+](=O)[O-])cc1[N+](=O)[O-]`, the call in test [1], in test [2], in test [3], in test [4], in test [5] and in test [6] was inactive. In addition, the call in test [7], in test [8], in test [9] and in test [10] was inactive.

With `COc1ccc([N+](=O)[O-])cc1[N+](=O)[O-]`, the result in [1], in test [2], in [3], in test [4], in test [6] and in test [7] was inactive. Also, the result in test [8], in test [9] and in test [10] was inactive. Further, the half-maximal activity concentration (AC50) in test [5] was active: 158 µM.

For the compound `CN(C)CCCl`, the compound was classed as inactive in [1], in test [2], in test [3], in test [4], in test [5] and in [6]. The call in test [7], in [8], in test [9] and in test [10] was inactive.

Turning to `COP(C)(=O)OC`, the result in test [1], in [2], in test [3], in test [4], in test [6] and in test [7] was inactive. Moreover, the compound was called inactive in test [8], in [9] and in [10]. The half-maximal activity concentration (AC50) in test [5] was active: 61.7 µM.

Regarding `CC(C)N(CCO)C(C)C`, the outcome in test [1], in test [2], in test [3], in [4], in test [5] and in test [6] was inactive. Further, the call in test [7], in test [8], in test [9] and in test [10] was inactive.

In the case of `N#CBr`, the call in [1], in test [2], in [3], in [4], in test [5] and in test [6] was inactive. In addition, the result in test [7], in [8], in [9] and in [10] was inactive.

Consider `Cc1c([N+](=O)[O-])cccc1[N+](=O)[O-]`, for which the compound was called inactive in test [1], in test [2], in [3], in [4], in [6] and in test [7]. Moreover, the compound was called inactive in test [8], in test [9] and in test [10]. In addition, in test [5], the AC50 is active: 52.1 µM.

For the compound `Cc1ccc([N+](=O)[O-])c([N+](=O)[O-])c1`, the compound was classed as inactive in test [1], in test [2], in test [3], in test [4], in [5] and in test [6]. The compound was called inactive in test [7], in [8], in [9] and in [10].
